## Ab-14 heavy chain CDR variants: yeast mating affinities

Reference: Li et al. 2023, doi:10.1038/s41467-023-39022-2. File: FLAb, binding data.

Antigen: PDVDLGDISGINAS, a 14-residue peptide of the SARS-CoV-2 spike HR2 region.

Ab-14 is the parent antibody, in scFv form: VH, then a 15-residue (Gly4Ser)3 linker, then VL. The light chain is unchanged in all variants.
VH: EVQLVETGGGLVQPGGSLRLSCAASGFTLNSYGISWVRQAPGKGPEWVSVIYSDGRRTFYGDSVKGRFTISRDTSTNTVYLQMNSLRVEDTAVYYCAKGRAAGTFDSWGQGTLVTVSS
VL: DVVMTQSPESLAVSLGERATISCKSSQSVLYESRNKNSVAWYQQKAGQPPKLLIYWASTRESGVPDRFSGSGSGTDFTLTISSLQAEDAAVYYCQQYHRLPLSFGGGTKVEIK

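The starting antibody came from a phage panning campaign against this peptide. Designed CDR sequences, proposed from the first random library and measured here. Group labels follow the data file (Ctrl: baseline library sampled from a position-specific scoring matrix, with some repeated check sequences; Rand: our label for a block that the file lists under HC and that is probably the random mutants of the ten best first-round binders; GP: Gaussian process model; GPLM: also part of the Gaussian process libraries; HC: hill climbing; Gen: genetic algorithm; Gibbs: Gibbs sampling; a sequence that several methods proposed may carry one label only). The assay is AlphaSeq: two haploid yeast populations carry antibody and antigen on their surface. Binding brings cells together so that they mate, and sequencing counts the barcode pairs among the diploids. Each replicate has its own calibration line, from reference interactions of the BCL2 family. Mating was done six times.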

Variants are written as CDR1, CDR2 and CDR3 of the heavy chain (limits as in the source). Parent: GFTLNSYGIS, VIYSDGRRTFYGDSVK, GRAAGTFDS. This list holds designs with at most six substitutions. The read-out is the apparent dissociation constant on a log10 scale (nM): the lower, the stronger. The mean shown is taken over the replicates in which the pair was detected. "no signal" marks a missing value. The strain was present, yet no cells mated with the target were sequenced in any replicate, which points to weak or no binding. The parent sequence was in this pool as ten entries: three were never detected, three once, and four in most replicates, with averages from 0.34 to 2.37.

Variant GFSLNEYGIS | VIYSDGRRTFYHDSVK | GRTAGTFDS [GPLM_Gen] gave 0.01 (6 of 6 replicates). For GFELNSYGIS | VIYSDGRRTFYGDSVK | GKMAGTFDS [GPLM_Gibbs], the assay gave 0.84 (6 of 6 replicates). Variant GFTLNEYGIS | VIYRDGYRTFYGDSVK | GRLKGEFDS [Ctrl] gave no signal (0 of 6 replicates). With GFHLNSYGIS | VIYSDGVRTFYGDSVK | GRAAGTFDL [Ctrl] the result was no signal (0 of 6 replicates). For GFTLNEYGIS | VIYSDGRRTFYGGSVK | GRAASTFDL [Ctrl], the assay gave no signal (0 of 6 replicates). Variant GFTLNEYGIS | VIYSDGRRTFYTDSGK | GRFAGTFDS [Rand] showed 2.66 (2 of 6 replicates). For GFTLTSYGIS | VIYSDGKRVFYGDSVK | GRVAGAFDS [Ctrl], the assay gave -0.65 (6 of 6 replicates).

With GFQLNSYGIS | VIYSDGRRTFYADQVK | GTAAGTFDS [GP_Gibbs] the result was 0.59 (6 of 6 replicates). Variant GFTLNSYGIS | VIYADGRRTFYGDSVK | GHAAGTFDS [GPLM_Gen] gave -0.13 (6 of 6 replicates). For GFTLSEYGIS | VIYSDGRRTWYGDQVK | GRAAGTFDS [Ctrl], the assay gave no signal (0 of 6 replicates). Variant GFSLNSYGIS | VIYSDGRRTFYGDSVK | GQAAGTFDW [GPLM_Gen] showed no signal (0 of 6 replicates). Variant GFKLNSYGIS | VIYSDGRRTFYDDSVK | GKLAGTFDS [GP_HC] gave 1.70 (5 of 6 replicates). Variant GFCLNDYGIS | VKYSDGRRTQYIDSVK | GRAAGTFDS [Rand] gave 1.50 (1 of 6 replicates). For GFSLNSYGIS | VIYSDGRRTFYTDSVK | GLNAGTFDS [GP_Gibbs], the assay gave 0.23 (6 of 6 replicates).

For GFDLNSYGIS | VIYSDGRRTFYGDAVK | GQTAGTFDQ [GP_Gibbs], the assay gave 1.30 (1 of 6 replicates). For LNTLNQYGIS | VIYSDGRRTFYGDSVK | GRAAGTFHS [Ctrl], the assay gave no signal (0 of 6 replicates). For GFRLNDYGIS | VIYSDGRRTFYGDSVK | GTAAGTFDS [GP_HC], the assay gave -0.11 (6 of 6 replicates). Variant GFTLKSYGIS | VIYADGRRTFYGDSVK | GQAAGTFDS [GPLM_Gen] gave 0.71 (6 of 6 replicates). For GFTLNSYGIS | VIYSDGRRTAYGDSVA | GRAAGTFDS [Ctrl], the assay gave 0.80 (6 of 6 replicates). Variant GFSLNTYGIS | VIYSDGRRTFYGDSVK | GEAAGTFDS [GPLM_Gen] showed 0.02 (5 of 6 replicates). Variant GFTLNDYGIS | VIYSDGRRTFYIDSVK | GRGAGTFDS [GP_HC] gave 1.37 (6 of 6 replicates).

Variant GFELNEYGIS | VIYSDGRRTFYGDSVK | GRAAGTFDF [GP_HC] gave 0.45 (6 of 6 replicates). Variant GFTLNSYGIS | VIYSDGRRTYYGDSVK | GRAPGIFFS [Ctrl] showed 1.67 (2 of 6 replicates). With GFTLNSYGIS | VIYSDGRRTSYLDSVK | GRAAGTFDS [Ctrl] the result was 1.24 (6 of 6 replicates). Variant GFTLNDYGIS | VIYSDGRRTFYIDSVK | GRAAGTFDA [GP_HC] showed 1.15 (2 of 6 replicates). With GFNLNSHGIS | VIYSDGWRTFYQDSVK | GKAAGTFRS [Ctrl] the result was no signal (0 of 6 replicates). For GFTLNSYGIS | VIYADGRRCFYGDAVK | GRAAGTFIS [Ctrl], the assay gave 0.37 (6 of 6 replicates). With GFTLNSYGIS | VIYHDGRRTFYHDSVK | GRERGTFDS [Ctrl] the result was no signal (0 of 6 replicates).

Variant EFTLNEYGIS | VIYSDGRRTFYRDSVK | GRTAGTFDS [GP_HC] gave 1.38 (3 of 6 replicates). With GFTLNSYGIS | VIYSDGRRTFYGDSVK | GHAKGTFDS [Ctrl] the result was no signal (0 of 6 replicates). With GFDLNSYGIS | VIYSDGRRTFYADPVK | GKTAGTFDS [GP_Gibbs] the result was -0.06 (6 of 6 replicates). Variant GFTLNDYGIS | VIYSDGRRTFYGDNVK | GGAACTFDS [Ctrl] gave no signal (0 of 6 replicates). For GTNLDSYGIS | VIYADGRRTFYVDSVK | GRAGGTFDS [Ctrl], the assay gave 1.45 (6 of 6 replicates). Variant GFSLNSYGIS | VIYSDGRRTFYSDQVK | GQTAGTFDS [GPLM_Gibbs] gave 0.03 (6 of 6 replicates). With GFTLDSYGIS | VIYADGRRTFYGDSVK | GRAAGTFDK [GP_Gen] the result was 0.25 (6 of 6 replicates).

Variant GFTLNEYGIS | VIYADGRRTFYGDSVK | GRAAGTFWS [GP_HC] gave 1.47 (1 of 6 replicates). With GFTLNSYGIS | VIYSDGRRTFYDDSVK | GAAAGTFDS [GP_HC] the result was 1.51 (6 of 6 replicates). With GFSLTSYGIS | VIYSDGRRTFYGDSVK | IRAAGHFDS [Ctrl] the result was no signal (0 of 6 replicates). Variant GFWLNEYGIS | VIYSDGQRTFYGDSVK | GRTAGTFDS [GP_Gibbs] showed 1.69 (4 of 6 replicates). With GFFLNEYGIS | VIYSDGRRTFYGDSVK | GTAAGTFDS [GP_HC] the result was 1.38 (1 of 6 replicates). Variant GFTLNSYGIS | VIYSDGRRTFKGDSVK | GRAAGTFDS [Ctrl] gave no signal (0 of 6 replicates). Variant GFTLNSYGIS | VIYSDGRRTFYGDSVK | GGAAGQFDS [Ctrl] showed no signal (0 of 6 replicates).

Variant GFTLNSYGIS | VIYSDGRRTFYDDSVK | GQLAGTFDM [GPLM_HC] showed 1.07 (4 of 6 replicates). Variant GFDLNSYGIS | VIYSDGLRTFYGDSVK | GRQAGTFDS [GP_Gen] showed 0.10 (6 of 6 replicates). Variant GFELNEYGIS | VIYSDGRRTFYGDSVK | GRIAGTFDT [GP_Gen] gave -0.08 (6 of 6 replicates). For GFTLNEYGIS | VIYSDGRRTFYGDRVK | GRAPGTFHS [Ctrl], the assay gave no signal (0 of 6 replicates). Variant GFSLNDYGIS | VIYSDGRRTFYADSVK | GRQAGTFDS [GPLM_Gibbs] gave -0.03 (6 of 6 replicates). Variant GNNLNSYGIS | VIYSDGRRTFYGDSVK | GRAAGTFDS [Ctrl] showed 2.85 (1 of 6 replicates). Variant GFPLNSYGIS | VIYSDGRRTFYDDSVK | GQVAGTFDS [GP_HC] showed 1.30 (6 of 6 replicates).

A selection of 4 entries from above:

Variant GTNLDSYGIS | VIYADGRRTFYVDSVK | GRAGGTFDS [Ctrl] gave 1.45 (6 of 6 replicates).
Variant GFFLNEYGIS | VIYSDGRRTFYGDSVK | GTAAGTFDS [GP_HC] gave 1.38 (1 of 6 replicates).
Variant GFCLNDYGIS | VKYSDGRRTQYIDSVK | GRAAGTFDS [Rand] gave 1.50 (1 of 6 replicates).
Variant GFTLDSYGIS | VIYADGRRTFYGDSVK | GRAAGTFDK [GP_Gen] gave 0.25 (6 of 6 replicates).

The range of this assay differs from that of the first round, and the authors advise against merging the two. In the paper, a design with two or fewer of six values counts as a poor binder. Empty control strains, which show no peptide, gave a signal in 1% of pairings with all heavy chain designs; the median was 2.08 and 95% of these signals were weaker than 0.84. No background was subtracted.